Results reported in patent publication US10239843B2 (CANCER RESEARCH TECHNOLOGY LIMITED, priority 2014, dated 2019).

Amino acid sequences for entries named in this document (tags omitted). A change or cut given only in a name is not applied to a line headed by its entry.
UniProt Q86W56: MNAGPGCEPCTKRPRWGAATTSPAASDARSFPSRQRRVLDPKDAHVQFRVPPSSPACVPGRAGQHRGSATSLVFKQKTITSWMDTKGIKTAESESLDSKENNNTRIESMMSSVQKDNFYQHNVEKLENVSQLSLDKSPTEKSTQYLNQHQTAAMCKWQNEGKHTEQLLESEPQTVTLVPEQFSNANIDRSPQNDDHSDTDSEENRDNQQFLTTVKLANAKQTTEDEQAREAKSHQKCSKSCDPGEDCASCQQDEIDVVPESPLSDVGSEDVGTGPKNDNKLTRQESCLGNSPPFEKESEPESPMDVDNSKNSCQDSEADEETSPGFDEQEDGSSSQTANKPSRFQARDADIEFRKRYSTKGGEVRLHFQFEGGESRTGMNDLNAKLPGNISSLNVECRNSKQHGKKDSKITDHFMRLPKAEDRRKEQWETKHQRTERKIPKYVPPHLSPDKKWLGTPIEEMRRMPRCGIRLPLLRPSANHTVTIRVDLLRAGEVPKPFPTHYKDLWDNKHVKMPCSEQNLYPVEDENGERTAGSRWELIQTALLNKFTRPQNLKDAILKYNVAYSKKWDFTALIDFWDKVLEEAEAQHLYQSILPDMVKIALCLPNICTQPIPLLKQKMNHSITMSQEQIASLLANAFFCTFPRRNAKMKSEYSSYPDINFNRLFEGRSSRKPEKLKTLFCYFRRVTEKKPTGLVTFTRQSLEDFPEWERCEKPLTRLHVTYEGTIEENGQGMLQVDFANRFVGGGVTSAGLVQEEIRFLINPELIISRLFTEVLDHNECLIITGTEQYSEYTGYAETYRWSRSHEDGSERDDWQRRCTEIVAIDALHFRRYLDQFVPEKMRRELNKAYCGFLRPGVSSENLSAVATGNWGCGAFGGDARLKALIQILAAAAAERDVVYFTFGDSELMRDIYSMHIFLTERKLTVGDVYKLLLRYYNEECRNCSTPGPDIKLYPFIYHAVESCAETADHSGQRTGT

Target: Human Full Length PARG (Homo sapiens (Human), UniProt Q86W56)
Assay: PARG enzyme assay (TR-FRET)
Type: biochemical
Settings: read-out: PARG Biochem IC50

IC50: 0.029 µM
Substance: 1-[(2,5-Dimethylpyrazol-3-yl)methyl]-3-[(1-methylpyrazol-4-yl)methyl]-2,4-dioxo-N-[1-(trideuteriomethyl)cyclopropyl]quinazoline-6-sulfonamide [Example 490]
